Compound activity: PubChem, Broad Institute
Compounds with a hit are over-represented: about 2.8% of the library has one in this group of screens.
Wnt act: activates Wnt/beta-catenin signaling in a reporter cell assay | activator, plate reader | activation, % at 9.35 µM | 300,000 tested, 1.2% active; in the data active = activation above about 30%, passing the limit was not always enough; inconclusive = no clear call, values can overlap the other calls;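 note: 0% = neutral control wells and 100% = positive control wells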
miR122 inh: blocks miR-122 activity in Huh7 sensor cells; Huh7 miR-122 Renilla luciferase sensor, 48 h; neutral wells = 0, positive control = 100; activation (reporter increase), % at 12.5 µM; 340,000 tested, 0.3% active; AID 602342;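 active = mean replicate activation score at least 90 and every replicate individually at or above 90; inconclusive = only one of the two criteria met; inactive = neither criterion met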;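 note: higher luciferase means less miR-122 activity so hits act as miR-122 inhibitors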
UUG fidelity: modulators of yeast start codon fidelity, primary screen, whole organism, S. cerevisiae, single point, plate reader; S. cerevisiae UUG-firefly luciferase reporter, luminescence/redox ratio; activity score, % at 18.7 µM; 0.13% of 350,000 active; AID 602363, 2012;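 active = replicate mean at a twofold rise or more, about +100% in these data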;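 also: firefly luciferase made from a UUG start codon reports start codon fidelity; reporter light over untreated wells divided by growth signal over untreated wells; some hits fall short of that in this replicate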
esBAF inh: inhibitors of esBAF chromatin remodeling in mouse ES cells | Bmi1-luciferase knock-in reporter, 24 h; 100% = twice the neutral-well signal | AID 602393 | reporter increase, % at 12.5 µM | 350,000 tested, 2% active; in the data active = activation above about 40%; inconclusive = no clear call, values can overlap the other calls;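 note: 0% = median of the plate's neutral control wells and 100% = double that signal; a rise in the Bmi1 reporter signal indicates esBAF inhibition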
MITF act: increases MITF-driven TRPM1 promoter luciferase signal; AID 588334; 300,000 tested, 0.75% active; SK-MEL-5 TRPM1-promoter luciferase, 24 h; % of positive control, neutral wells = 0; activation, % at 12.5 µM;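 active = mean activation of at least 80% with every replicate also reaching 80%; inconclusive = mean reaches 80% but some replicate falls short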;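 note: 0% = neutral control wells and 100% = parthenolide positive control wells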
PglD DTNB: inhibitors of Campylobacter jejuni PglD acetyltransferase | purified PglD enzyme, DTNB colorimetric CoA detection | inhibition, % at 12.5 µM | 360,000 tested, 0.098% active | AID 602405; in the data active = inhibition above about 16%, passing the limit was not always enough; inconclusive = no clear call, values can overlap the other calls
The depositor's hits bear a star; [ ] = another dose, or the depositor's remark.

Screening C[C@@H]1CN([C@@H](C)CO)C(=O)c2cccc(NC(=O)C3CC3)c2O[C@H]1CN(C)C(=O)Nc1ccc(C(F)(F)F)cc1 returned miR122 inh -1[16.7 µM], UUG fidelity 1, esBAF inh 1 and PglD DTNB 1.
Screening C[C@@H]1CN([C@@H](C)CO)C(=O)Cc2cc(NC(=O)Nc3cccc4ccccc34)ccc2O[C@H]1CN(C)Cc1ccc(Oc2ccccc2)cc1 returned miR122 inh -1[16.7 µM], UUG fidelity -6, esBAF inh -1 and PglD DTNB -2.
For CC(C)NC(=O)N(C)C[C@H]1OCCCC[C@H](C)Oc2ccc(NC(=O)CCCN(C)C)cc2C(=O)N([C@H](C)CO)C[C@@H]1C the results were miR122 inh 0[16.7 µM] and PglD DTNB 2.
For CC(=O)Nc1cc(-c2ccc(Cl)cc2)[nH]n1 the results were Wnt act -2, miR122 inh 10, UUG fidelity -12, esBAF inh 74*, MITF act 25 and PglD DTNB -2.
`COc1cc(OC)cc(-c2cc(NC(C)=O)n[nH]2)c1` gave Wnt act 3, miR122 inh 5, UUG fidelity -22, esBAF inh 2 and PglD DTNB 4.
`CC(=O)c1ccc(NC(=O)C2(c3ccccc3)CCOCC2)cc1` gave Wnt act 14, miR122 inh -1, UUG fidelity 5, esBAF inh 55*, MITF act 58 and PglD DTNB 1.
For [N-]=[N+]=NCc1ccccc1C[C@]1(C(=O)NCCN2CCOCC2)COC(c2ccc(OCCCO)cc2)=N1 the results were UUG fidelity -2 and PglD DTNB 8.
For CC(=O)Nc1cnc(-c2cc(C)c(O)c(C)c2)cn1 the results were Wnt act 0, miR122 inh 1, UUG fidelity -8, esBAF inh 72* and PglD DTNB -2.
`CC(=O)Nc1cnc(-c2ccc3c(c2)OCO3)cn1` gave Wnt act 40*, miR122 inh 1, UUG fidelity -23, esBAF inh 19 and PglD DTNB -2.
Screening O=C(COc1ccc(Cc2ccccc2)cc1)c1ccc(F)cc1 returned Wnt act inconclusive, miR122 inh 0, UUG fidelity -5, esBAF inh 31, MITF act 36 and PglD DTNB 5.
Screening O=C(COc1ccc(F)cc1)c1ccc2c(c1)CCCC2 returned miR122 inh -5, UUG fidelity -10, esBAF inh 42*, MITF act inconclusive and PglD DTNB -5.
`CC(C)NC(=O)N(C)C[C@@H]1Oc2ccc(NS(=O)(=O)c3ccc(Cl)cc3)cc2C(=O)N([C@@H](C)CO)C[C@@H]1C` gave miR122 inh 3[16.7 µM], UUG fidelity 8, esBAF inh -3 and PglD DTNB 10.
CO[C@@H]1CN(C)C(=O)c2ccc(NC(=O)C3CCCC3)cc2OC[C@H](C)N(CC2CC2)C[C@@H]1C was read as UUG fidelity -1, esBAF inh 5 and PglD DTNB 1.
Cc1ccc(NC(=O)Cc2nc(COC(=O)c3c(F)cccc3Cl)cs2)cc1 was read as Wnt act 0, miR122 inh 8, UUG fidelity 2, esBAF inh -3, MITF act 2 and PglD DTNB 1.
`Cc1nn2c(=O)cc(COC(=O)c3c(F)cccc3Cl)nc2s1` gave Wnt act 50*, miR122 inh -5, UUG fidelity -1, esBAF inh 31, MITF act 61 and PglD DTNB 4.
Brc1ccc2nc(-c3cccs3)c(NCC3CCCO3)n2c1 (stereo unspecified) was read as Wnt act 3, miR122 inh 6, esBAF inh 60* and MITF act 11.
`c1csc(-c2nc(NCC3CCCO3)c3ccccc3n2)c1` (stereo unspecified) gave Wnt act 0, miR122 inh 0, UUG fidelity -11, esBAF inh 4, MITF act -4 and PglD DTNB -8.
Screening CCOc1ccc2nc(SCc3ccc(OC)cc3)sc2c1 returned MITF act 21.
Screening CCOc1ccc2nc(SCc3ccccc3C#N)sc2c1 returned miR122 inh 0, UUG fidelity -13, esBAF inh 61*, MITF act inconclusive and PglD DTNB -4.
For CCOc1ccc2nc(SCC(=O)NC3CC3)sc2c1 the results were Wnt act 2, UUG fidelity -10, esBAF inh 8, MITF act 24 and PglD DTNB 4.
CCOc1ccc2nc(SCC(=O)c3ccccc3)sc2c1 was read as Wnt act 8, UUG fidelity 14, esBAF inh 47*, MITF act 60 and PglD DTNB 7.
Screening O=C(C[C@@H]1CC[C@@H]2[C@H](COC[C@H](O)CN2C(=O)c2ccc3c(c2)OCO3)O1)NCCN1CCCCC1 returned miR122 inh 3[16.7 µM], esBAF inh -3 and PglD DTNB -1.
For C[n+]1ccccc1/C=C/c1ccc(F)c(F)c1 the results were Wnt act -2, UUG fidelity -14, esBAF inh 1 and PglD DTNB 0.
C[n+]1ccccc1/C=C/c1ccc2ncccc2c1 was read as Wnt act -1, miR122 inh -20, UUG fidelity -6, esBAF inh 71* and PglD DTNB -6.
For O=C(CSc1ncnc2c1nnn2Cc1ccccc1F)NCC1CCCO1 (stereo unspecified) the results were Wnt act 0, miR122 inh 0, UUG fidelity 2, MITF act -8 and PglD DTNB -3.
For Nc1ncnc2c1ncn2C1CCCO1 (stereo unspecified) the results were Wnt act -3, miR122 inh -3, UUG fidelity -3, esBAF inh 4, MITF act 11 and PglD DTNB -2.
For CCCCSc1ncnc2c1ncn2C1CCCCO1 (stereo unspecified) the results were Wnt act 52*, UUG fidelity -32, esBAF inh 16, MITF act 90* and PglD DTNB 2.
Screening Fc1ccccc1CSc1ncnc2c1ncn2C1CCCO1 (stereo unspecified) returned Wnt act 0, miR122 inh 7, UUG fidelity -8, esBAF inh 69*, MITF act 59 and PglD DTNB -5.
Screening CCCNC(=O)[C@H]1[C@H](CO)[C@H]2Cn3c(ccc(-c4ccc(F)cc4)c3=O)[C@@H]1N2CC returned miR122 inh 5[16.7 µM], esBAF inh 2 and PglD DTNB -3.
Screening CC(C)NC(=O)N(C)C[C@@H]1Oc2ccc(NC(=O)C3CC3)cc2C(=O)N([C@H](C)CO)C[C@@H]1C returned miR122 inh 2[16.7 µM], UUG fidelity -6, esBAF inh -3 and PglD DTNB -2.
Screening NS(=O)(=O)c1cccc(NC(=O)c2cc(=O)c3ccccc3o2)c1 returned Wnt act 2, UUG fidelity 0, esBAF inh 4, MITF act 13 and PglD DTNB 3.

Ordered by formula weight (ascending): part of the list above
For Nc1ncnc2c1ncn2C1CCCO1 (stereo unspecified) the results were Wnt act -3, miR122 inh -3, UUG fidelity -3, esBAF inh 4, MITF act 11 and PglD DTNB -2.
Screening Fc1ccccc1CSc1ncnc2c1ncn2C1CCCO1 (stereo unspecified) returned Wnt act 0, miR122 inh 7, UUG fidelity -8, esBAF inh 69*, MITF act 59 and PglD DTNB -5.
Screening NS(=O)(=O)c1cccc(NC(=O)c2cc(=O)c3ccccc3o2)c1 returned Wnt act 2, UUG fidelity 0, esBAF inh 4, MITF act 13 and PglD DTNB 3.
Screening CCCNC(=O)[C@H]1[C@H](CO)[C@H]2Cn3c(ccc(-c4ccc(F)cc4)c3=O)[C@@H]1N2CC returned miR122 inh 5[16.7 µM], esBAF inh 2 and PglD DTNB -3.
